Assay results as given in paper PMC6297782, “DNA-Mediated Interferon Signature Induction by SLE Serum Occurs in Monocytes Through Two Pathways: A Mechanism to Inhibit Both Pathways” (Frontiers in Immunology, 2018).

Assays:
[1] = system: primary human monocytes / SLE serum-induced ISGs; assay: ISG induction by SLE serum in healthy donor monocytes (qPCR); type: cell-based; settings: SLE serum with or without sRAGE or anti-FcRIIa antibody, 4 h; three independent experiments
Method: (§1) Human cells were obtained with approval of the Institutional Review Board of the Feinstein Institute for Medical Research. PBMCs were isolated from blood of healthy donors (New York Blood Center) by density centrifugation. Monocytes were enriched by negative selection using a human monocyte enrichment kit (STEMCELL Technologies). Purity of monocytes (CD11b^+, CD14^+, LAIR-1^+) was determined to be >90% by flow cytometry (FACS Calibur, BD Biosciences, San Jose, CA, USA). Purified monocytes (2 × 10^6 cells/ml) were cultured in U-bottom 96-well plates in X-VIVO 15 serum free medium (Lonza) with the indicated reagents and harvested at 4–6 h later, or at the indicated times. […] Murine monocyte purity was determined to be >90%.
(§2) Total RNA was extracted from cells (1–2 × 10^6 cells per sample) with an RNeasy kit (Qiagen, Germantown, MD, USA) and cDNA was generated using an iScript cDNA synthesis kit (Bio-Rad, Hercules, CA, USA). qRT-PCR was performed on a Light Cycler 480 II (Roche, Indianapolis, IN, USA). […] The relative induction was calculated by 2^−ΔΔCt.
(§3) For RNA interference assays, human monocytes (5 × 10^6 cells) were transfected with RAGE (Thermo Fischer Catalog # AM16708 ID: 110857, 200 nM) or CD32 siRNA (Thermo Fischer Catalog #4392420 ID: s194407, 200 nM) using an Amaxa Nucleofector I Device (Lonza). […] The efficiency of the knockdown was determined by immunofluoresence microscopy and q-PCR. […]

[2] = system: CpG-induced ISGs, primary human monocytes; assay: ISG induction by CpG in monocytes (qPCR); type: cell-based; settings: CpG with soluble RAGE or blocking anti-FcRIIa antibody, 4 h
Method: as §1, §2, §3

[3] = system: SLE serum-induced interferon signature; set-up: method as in PMID 17417641; settings: previous study; cited from earlier work

Substance: sRAGE: Human recombinant sRAGE, soluble form of RAGE acting as a decoy receptor
- induction of IFIT1 or Mx1 by SLE serum after receptor blockade [1]: significantly reduced induction of either IFIT1 or Mx1
- monocyte activation by CpG (effect of receptor blockade) [2]: could be suppressed
- inhibition of interferon signature induction by SLE serum [3]: can inhibit the induction of an interferon signature by SLE serum
